Test results published in US20170275249A1, “SMALL LIPOPEPTIDOMIMETIC INHIBITORS OF GHRELIN O-ACYL TRANSFERASE” (THE REGENTS OF THE UNIVERSITY OF CALIFORNIA, priority 2014, published 2017).

Chains of the proteins cited; added tags and fusions are not shown.
UniProt P0C7A3, whole entry: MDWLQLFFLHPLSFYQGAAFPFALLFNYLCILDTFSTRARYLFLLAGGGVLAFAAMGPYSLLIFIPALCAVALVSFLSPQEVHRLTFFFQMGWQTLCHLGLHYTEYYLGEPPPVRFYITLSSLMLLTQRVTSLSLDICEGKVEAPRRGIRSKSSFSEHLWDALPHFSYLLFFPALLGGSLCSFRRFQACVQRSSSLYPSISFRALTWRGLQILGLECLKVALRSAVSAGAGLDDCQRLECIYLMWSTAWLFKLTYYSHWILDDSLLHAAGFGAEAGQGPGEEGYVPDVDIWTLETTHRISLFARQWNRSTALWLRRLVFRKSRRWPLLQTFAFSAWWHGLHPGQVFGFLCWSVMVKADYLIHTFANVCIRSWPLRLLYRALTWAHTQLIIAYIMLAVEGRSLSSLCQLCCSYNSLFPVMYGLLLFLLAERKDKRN

Target: mouse GOAT (Mus musculus, UniProt P0C7A3)
Assay: ghrelin radio-octanoylation assay (Yang et al.), Sf9 membrane fractions
Conditions: Table 1, inhibitory activity against GOAT, cells printed in nM
Description: In vitro activity was quantified using the octanoylation assay developed by Yang et al. (2008, Proc. Natl. Acad. Sci. USA 105:10750-10755). No pure or soluble form of GOAT that retains enzymatic activity is thus far available. Recombinant poly-His-tagged ghrelin was incubated with radiolabeled octanoyl CoA and membrane fractions isolated from Sf9 cells infected with a GOAT-encoding baculovirus. Recovery of acyl- and des-acyl ghrelin using a Ni^2+ affinity column was followed by scintillation counting to determine the extent of acyltransferase activity, which was reported as a percentage of control.
Thiosarcosine derived peptidomimetic Compound 1 (of Example 1.1) and truncated analog Compound 2 (of Example 1.2), which served as a negative control, were screened for GOAT-inhibiting activity using membrane fractions prepared from Sf9 cells infected with baculovirus encoding mouse GOAT as a source of the acyltransferase. The assay detected specific acyl transfer from tritiated octanoyl-CoA to recombinant His-tagged proghrelin.

IC50 [nM]	SMILES
30	CCCC[C@H]1C[C@@H](C(=O)NC[C@H]2CCCN2C(=O)[C@@H](NC(=S)CNC)C(C)(C)C)C1
70	CCCC[C@H]1C[C@H](C(=S)NC[C@H]2CCCN2C(=O)[C@@H](NC(=S)CN)C(C)(C)C)C1 [Entry 16, (1s,3R)—N—(((R)-1-((S)-2-(2-AMINOETHANETHIOAMIDO)-3,3-DIMETHYLBUTANOYL)PYRROLIDIN-2-YL)METHYL)-3-BUTYLCYCLOBUTANECARBOTHIOAMIDE]
